In patent US10512669B2, “Blockade of inflammatory proteases with cyclic peptides” (The Regents of the University of California, priority 2011, dated 2019):
Bridge positions count the residues as written; N and C are the ends. Peptide text beside a SMILES is read from it.

System: chimpanzees
Assay: escalating i.v. doses in adult chimpanzees: toxicity and immunogenicity
Details: two adult chimpanzees, 3 mg/kg maximum

**Q.** For `CC[C@H](C)[C@@H]1NC(=O)[C@@H]2CSSC[C@H](NC(=O)[C@H](CCCNC(=N)N)NC(=O)[C@@H]3CSSC[C@H](NC1=O)C(=O)N[C@@H]([C@@H](C)O)C(=O)N[C@@H](CCCNC(=N)N)C(=O)NCC(=O)N[C@@H](Cc1ccccc1)C(=O)N3)C(=O)N[C@@H](CC(C)C)C(=O)N[C@H]1CSSC[C@H](NC(=O)[C@H](C(C)C)NC(=O)CNC(=O)[C@H](CCCNC(=N)N)NC(=O)[C@H](CCCNC(=N)N)NC1=O)C(=O)N[C@@H](CCCNC(=N)N)C(=O)N2` [RTD-1] (cyclo(GFCRCLCRRGVCRCICTR); disulfide 3-16, 5-14, 7-12 (inferred); ring closure inferred), which clinical toxicity is on record?
**A.** No clinical toxicity was observed
